Data: paper PMC4368516 (PLoS Neglected Tropical Diseases, 2015)
Structures can show the parent of a compound that is named as a salt.

The chains behind the UniProt entries cited, without tags or fusion partners.
UniProt A0A0B5H0X6, entry or part of it: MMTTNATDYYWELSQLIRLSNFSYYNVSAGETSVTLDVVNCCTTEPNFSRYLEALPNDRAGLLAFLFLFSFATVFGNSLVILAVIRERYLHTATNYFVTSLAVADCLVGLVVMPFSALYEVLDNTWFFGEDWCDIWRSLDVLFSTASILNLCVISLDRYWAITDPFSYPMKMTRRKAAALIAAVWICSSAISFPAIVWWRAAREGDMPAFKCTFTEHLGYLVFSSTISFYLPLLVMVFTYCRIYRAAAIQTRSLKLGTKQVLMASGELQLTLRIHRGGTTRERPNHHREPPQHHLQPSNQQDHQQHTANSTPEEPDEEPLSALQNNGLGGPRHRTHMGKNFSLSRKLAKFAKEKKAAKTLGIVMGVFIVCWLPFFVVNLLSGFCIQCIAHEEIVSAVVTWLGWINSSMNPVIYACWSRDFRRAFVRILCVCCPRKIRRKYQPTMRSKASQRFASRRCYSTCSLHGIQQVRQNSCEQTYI
UniProt P21728, whole entry: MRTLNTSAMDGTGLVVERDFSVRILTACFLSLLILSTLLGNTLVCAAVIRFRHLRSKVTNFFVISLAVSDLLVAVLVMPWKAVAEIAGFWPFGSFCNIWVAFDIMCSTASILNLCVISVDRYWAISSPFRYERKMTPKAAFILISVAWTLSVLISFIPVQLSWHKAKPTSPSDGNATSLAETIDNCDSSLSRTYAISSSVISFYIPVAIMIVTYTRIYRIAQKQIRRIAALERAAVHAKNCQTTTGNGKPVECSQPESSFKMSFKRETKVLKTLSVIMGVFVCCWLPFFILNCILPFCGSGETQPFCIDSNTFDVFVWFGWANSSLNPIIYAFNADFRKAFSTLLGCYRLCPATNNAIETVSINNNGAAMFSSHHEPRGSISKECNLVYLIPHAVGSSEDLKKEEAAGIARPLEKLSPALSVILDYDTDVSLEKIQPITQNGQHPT

Key:
AaDOP2 = biological target: T1, AaDOP2 (Aedes aegypti, UniProt H6D5H2); settings: human D1 IC50 divided by AaDOP2 IC50
T1 sequence (H6D5H2 1-476): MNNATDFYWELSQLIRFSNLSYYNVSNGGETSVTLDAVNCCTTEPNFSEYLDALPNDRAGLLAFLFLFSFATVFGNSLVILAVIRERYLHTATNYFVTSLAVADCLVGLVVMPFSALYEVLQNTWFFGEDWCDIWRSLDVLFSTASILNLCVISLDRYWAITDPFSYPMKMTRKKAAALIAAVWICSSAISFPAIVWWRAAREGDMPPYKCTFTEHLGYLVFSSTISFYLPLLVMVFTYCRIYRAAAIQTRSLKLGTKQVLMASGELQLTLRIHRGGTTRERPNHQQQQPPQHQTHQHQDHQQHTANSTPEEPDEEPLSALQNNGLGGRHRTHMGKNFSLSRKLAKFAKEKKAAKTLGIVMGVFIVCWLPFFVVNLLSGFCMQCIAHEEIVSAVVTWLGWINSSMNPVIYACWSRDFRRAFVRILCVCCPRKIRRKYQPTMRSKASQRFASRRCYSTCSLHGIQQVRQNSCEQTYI

CqDOP2 = CqDOP2 (Culex quinquefasciatus, UniProt A0A0B5H0X6); settings: human D1 IC50 divided by CqDOP2 IC50
Human D1 = biological target: T2, Human D1 (Homo sapiens, UniProt P21728); experiment: Inhibition of dopamine-stimulated cAMP response (HTRF) in HEK293 cells expressing human D1; type: cell-based
T2 construct: expressed in transfected cells

| Fold selectivity to Human D1, AaDOP2 (AaDOP2) | Fold selectivity to Human D1, CqDOP2 (CqDOP2) | IC50 (Human D1) | Structure (SMILES) |
| --- | --- | --- | --- |
| 144 | 126 |  | CN1CC2c3ccccc3Oc3ccc(Cl)cc3C2C1 (stereo not drawn) [Asenapine, asenapine maleate] |
| 5 | 5 | 9.4 ± 3 nM | OCCN1CCN(CC/C=C2/c3ccccc3Sc3ccc(C(F)(F)F)cc32)CC1 [Cis-(Z)-flupenthixol, cis-(Z)-flupenthixol dihydrochloride] |
| 111 | 227 |  | CN(C)CCC=C1c2ccccc2COc2ccccc21 [Doxepin, doxepin hydrochloride] |

| Structure (SMILES) | Fold selectivity to Human D1, AaDOP2 (AaDOP2) | Fold selectivity to Human D1, CqDOP2 (CqDOP2) | IC50 (Human D1) |
| --- | --- | --- | --- |
| CN(C)CCC=C1c2ccccc2CCc2ccccc21 [Amitriptyline, amitriptyline hydrochloride] | 108 | 209 |  |
